# Data published in publication PMC3506176 (Nature chemical biology, 2010).
# The chains behind the UniProt entries cited, without tags or fusion partners.
# UniProt P37288, whole entry: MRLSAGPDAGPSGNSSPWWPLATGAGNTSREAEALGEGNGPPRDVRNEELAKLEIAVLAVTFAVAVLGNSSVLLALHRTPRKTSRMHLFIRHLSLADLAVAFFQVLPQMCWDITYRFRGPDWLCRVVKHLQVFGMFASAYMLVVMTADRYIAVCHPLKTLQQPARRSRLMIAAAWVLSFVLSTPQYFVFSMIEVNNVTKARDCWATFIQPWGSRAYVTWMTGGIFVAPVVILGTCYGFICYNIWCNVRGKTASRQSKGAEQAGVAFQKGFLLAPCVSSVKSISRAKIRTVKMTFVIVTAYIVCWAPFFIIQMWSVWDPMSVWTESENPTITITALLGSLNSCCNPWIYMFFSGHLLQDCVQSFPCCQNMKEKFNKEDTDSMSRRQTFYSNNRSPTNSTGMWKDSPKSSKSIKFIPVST
# Target: vasopressin V1a receptor (UniProt P37288)
# Assay: FRET or BRET
substance,measurement,value
vasopressin (peptide),IC50,2.1 nM
